ChEMBL document CHEMBL4354822, “Ligand-Based Design of Nondimethylphenyl-Diarylpyrimidines with Improved Metabolic Stability, Safety, and Oral Pharmacokinetic Profiles” (J Med Chem, 2019)

Test: Selectivity index, ratio of CC50 for human MT4 cells to EC50 for antiviral activity against HIV1 3B infected in human MT4 cells incubated for 5 days by MTT assay
Assay type: toxicity, cell-based
Settings: MT4 cells (uninfected for CC50; HIV-1 3B infected for EC50)

## Cc1cc(C#N)cc(C)c1Oc1nc(Nc2ccc(C#N)cc2)nc(N)c1Br [ETRAVIRINE]
  selectivity ratio at 120 h: > 833
